UUG fidelity: modulators of start codon recognition fidelity in yeast; S. cerevisiae UUG-firefly luciferase reporter, luminescence/redox ratio; AID 602363; 350,000 tested, 0.13% active; activity score, % at 18.7 µM;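 active = replicate mean at a twofold rise or more, about +100% in these data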;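 also: firefly luciferase made from a UUG start codon reports start codon fidelity; reporter light over untreated wells divided by growth signal over untreated wells; some hits fall short of that in this replicate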
PglD DTNB: blocks C. jejuni PglD acetyltransferase activity; purified PglD enzyme, DTNB colorimetric CoA detection; inhibition, % at 12.5 µM; hit rate 0.098% among 360,000; AID 602405; in the data active = inhibition above about 16%, passing the limit was not always enough; inconclusive = no clear call, values can overlap the other calls
Wnt act: activators of Wnt/beta-catenin signaling; Wnt/beta-catenin reporter cell assay, activator, plate reader; activation, % at 9.35 µM; hit rate 1.2% among 300,000; AID 743398; in the data active = activation above about 30%, passing the limit was not always enough; inconclusive = no clear call, values can overlap the other calls;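 also: 0% = neutral control wells and 100% = positive control wells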
esBAF inh: blocks esBAF chromatin remodeling in mouse ES cells; AID 602393; reporter increase, % at 12.5 µM; Bmi1-luciferase knock-in reporter, 24 h; 100% = twice the neutral-well signal; hit rate 2% among 350,000; in the data active = activation above about 40%; inconclusive = no clear call, values can overlap the other calls;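 also: 0% = median of the plate's neutral control wells and 100% = double that signal; a rise in the Bmi1 reporter signal indicates esBAF inhibition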
miR-122 sensor: inhibitors of miR-122 in Huh7 cells; Huh7 miR-122 Renilla luciferase sensor, 48 h; neutral wells = 0, positive control = 100; activation (reporter increase), % at 12.5 µM; hit rate 0.3% among 340,000; AID 602342;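 active = mean replicate activation score at least 90 and every replicate individually at or above 90; inconclusive = only one of the two criteria met; inactive = neither criterion met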;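 also: higher luciferase means less miR-122 activity so hits act as miR-122 inhibitors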
MITF act: activators of MITF-driven TRPM1 promoter activity in SK-MEL-5 cells; SK-MEL-5 TRPM1-promoter luciferase, 24 h; % of positive control, neutral wells = 0; activation, % at 12.5 µM; hit rate 0.75% among 300,000; AID 588334;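 active = mean activation of at least 80% with every replicate also reaching 80%; inconclusive = mean reaches 80% but some replicate falls short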;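 also: 0% = neutral control wells and 100% = parthenolide positive control wells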
Numbers without * were called inactive; [ ] = dose if it differs, or a comment. Shown are actives, neighbours in structure and some others; about 2.8% of the full set was active somewhere.

Results for CC(C)C#Cc1ccc([C@@H]2[C@@H](CO)N(C(=O)CN(C)C)[C@H]2C#N)cc1 ?
UUG fidelity: 9; PglD DTNB: -1; esBAF inh: 4

Results for Cc1ccc(OCC(=O)Nc2ccccc2F)cc1C ?
Wnt act: 43*; MITF act: 107*

What do the screens show for `Cc1ccc(CCC(=O)Nc2ccccc2F)s1`?
UUG fidelity: -31; PglD DTNB: 5; Wnt act: 62*; esBAF inh: 38; miR-122 sensor: -4; MITF act: 61

What do the screens show for `Cc1ccccc1NC(=O)c1ccc(OCC(=O)Nc2ccccc2F)cc1`?
Wnt act: 0; MITF act: 0

Results for Cc1ccc(OCC(=O)Nc2cccnc2Cl)cc1C ?
Wnt act: 10; esBAF inh: 6; miR-122 sensor: 1; MITF act: 87*

Results for NC(=O)C1CC(=O)N(c2ccc(OCc3ccc(Cl)c(Cl)c3)cc2)C1 (stereo unspecified) ?
UUG fidelity: -14; PglD DTNB: 1; Wnt act: 54*; esBAF inh: 51*; miR-122 sensor: 3

What do the screens show for `NC(=O)C1CC(=O)N(c2ccc(OCc3ccc(Cl)cc3Cl)cc2)C1` (stereo unspecified)?
UUG fidelity: -21; PglD DTNB: -1; Wnt act: 2; esBAF inh: 18; miR-122 sensor: -5; MITF act: 30

Results for Cc1cc(Cl)ccc1OCC(=O)OCC(=O)Nc1cccnc1Cl ?
UUG fidelity: -20; PglD DTNB: 4; Wnt act: -1; esBAF inh: -5; miR-122 sensor: 0; MITF act: 2

How did C[C@@H]1CCCCO[C@H](CN(C)S(C)(=O)=O)[C@H](C)CN([C@@H](C)CO)C(=O)c2cc(N(C)C)ccc2O1 do in these assays?
UUG fidelity: 0; PglD DTNB: -58; esBAF inh: -1; miR-122 sensor: 3[16.7 µM]

Results for COc1ccccc1/C=C/C(=O)Nc1cccnc1Cl ?
UUG fidelity: 6; PglD DTNB: -4; Wnt act: 0; esBAF inh: -16; miR-122 sensor: 7; MITF act: 69

Results for COc1ccc(/C=C/C(=O)Nc2cccnc2Cl)cc1 ?
Wnt act: 43*; esBAF inh: inconclusive; MITF act: 97*

How did COc1ccc(-c2cc3nc4n(c(=O)c3s2)CCCCC4)cc1 do in these assays?
Wnt act: 37*; esBAF inh: 7

What do the screens show for `O=C1c2ccccc2C(=O)C1c1ccc(O)cc1`?
UUG fidelity: -23; PglD DTNB: 1; Wnt act: inconclusive; esBAF inh: 59*; miR-122 sensor: -24; MITF act: 59

Results for C/C=C/c1ccc([C@@H]2[C@H](CO)N(S(C)(=O)=O)[C@H]2CN(CC)C(=O)CC)cc1 ?
UUG fidelity: 9; PglD DTNB: -2; esBAF inh: 1; miR-122 sensor: -14[16.7 µM]

Results for O=S(=O)(Nc1ccc2c3c(cccc13)CC2)c1ccccc1 ?
UUG fidelity: -21; PglD DTNB: -2; Wnt act: -2; esBAF inh: 11; miR-122 sensor: 2

How did Cc1cc(C)c(S(=O)(=O)Nc2ccc3c4c(cccc24)CC3)c(C)c1 do in these assays?
UUG fidelity: -31; PglD DTNB: 11; esBAF inh: -20; miR-122 sensor: 111*; MITF act: -59

How did O=C(NN=Cc1ccc(OC(F)F)cc1)c1ccc(NS(=O)(=O)c2cccs2)cc1 do in these assays?
UUG fidelity: -15; PglD DTNB: 0; Wnt act: 51*; esBAF inh: 30; MITF act: 30

Results for Cc1ccc2[nH]c(O)c(N=NC(=O)c3ccc(NS(=O)(=O)c4cccs4)cc3)c2c1 ?
Wnt act: 7; esBAF inh: 0; miR-122 sensor: 0; MITF act: -7

How did COc1ccc2[nH]c(O)c(N=NC(=O)c3ccc(NS(=O)(=O)c4cccs4)cc3)c2c1 do in these assays?
UUG fidelity: -4; PglD DTNB: 0; Wnt act: 19; esBAF inh: 44*; miR-122 sensor: -2; MITF act: 41

How did CN1C(=O)c2cc(NC(=O)c3ccccc3)ccc2OC[C@H]2O[C@H](CC(=O)NC3CCCC3)CC[C@@H]21 do in these assays?
UUG fidelity: 7; PglD DTNB: 4; esBAF inh: -1; miR-122 sensor: -17[16.7 µM]

Among those listed so far, two have an NH in an aromatic ring.
Results for Cc1ccc2[nH]c(O)c(N=NC(=O)c3ccc(NS(=O)(=O)c4cccs4)cc3)c2c1 ?
Wnt act: 7; esBAF inh: 0; miR-122 sensor: 0; MITF act: -7

How did COc1ccc2[nH]c(O)c(N=NC(=O)c3ccc(NS(=O)(=O)c4cccs4)cc3)c2c1 do in these assays?
UUG fidelity: -4; PglD DTNB: 0; Wnt act: 19; esBAF inh: 44*; miR-122 sensor: -2; MITF act: 41

Screening data (PubChem)
